UUG fidelity – yeast start codon fidelity modulation; activity score, % at 18.7 µM; actives 0.13% (n = 350,000); S. cerevisiae UUG-firefly luciferase reporter, luminescence/redox ratio; AID 602363;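 active means replicate mean at a twofold rise or more, about +100% in these data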;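 further: firefly luciferase made from a UUG start codon reports start codon fidelity; reporter light over untreated wells divided by growth signal over untreated wells; some hits fall short of that in this replicate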
CDK5 inh – blocks human CDK5/p35 kinase activity; Q00535+Q15078; Recombinant CDK5/p35, ADP-Glo luminescence, 60 min; inhibition, % at 10 µM; hit rate 0.01% among 330,000; AID 488839;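 active = highest replicate inhibition of at least 50% and at least 75% of replicates reaching 50%; inconclusive = only one of the two criteria met; inactive = both criteria failed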;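 note: plate controls were DMSO neutral control for no effect and GW8510 at 10 µM for full effect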
CAL PDZ FP-1 – blocks peptide binding to human CAL PDZ domain; Q9HD26; purified CAL PDZ, TMR-peptide fluorescence polarization, 1 h; inhibition, % at 20 µM; hit rate 0.02% among 330,000;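 active = highest replicate inhibition of at least 40%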;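 note: plate controls were DMSO neutral control wells for no effect and unlabeled competitor peptide control wells for full effect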
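Assay system – tagged CAL PDZ protein CerCALP, purified · Timing – 1 h at RT · Compound – single point, 20 µM · Measured by – fluorescence polarization from S- and P-plane intensities, G-factor corrected · Evaluation – inhibition from polarization loss · Probe or stimulus – TMR reporter peptide T*-PRC34 · Buffer or medium – pH 7.4 phosphate-saline buffer, reducing agent, detergent, IgG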
Dyrk1A ADPGlo – blocks rat Dyrk1A kinase activity | Q63470 | ADP-Glo luminescence, NFATc1 peptide | hit rate 0.43% among 310,000 | inhibition, % at 12.5 µM | AID 504441; in the data active = inhibition above about 50%;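 note: plate controls were vehicle with enzyme for no effect and no enzyme for full effect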
dFosB act-1 – activators of mouse delta FosB homodimer | P13346 | purified delta FosB, TAMRA-CDK5 oligo fluorescence polarization; percent of positive-control signal above neutral wells | activation, % at 25 µM | hit rate 0.99% among 340,000;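 active = mean activation above about 17%, with every replicate also reaching it, limit read from the data, passing the limit was not always enough; inconclusive = only one of the two conditions met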
CAL PDZ FP-2 – blocks peptide binding to the human CAL PDZ domain; Q9HD26; purified CAL PDZ, TMR-peptide fluorescence polarization, 1 h; inhibition, % at 24.9 µM; hit rate 0.92% among 300,000; AID 602252;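 active = mean inhibition of at least 30% with at least half of replicates also reaching 30%; inconclusive = no clear call, values can overlap the other calls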;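 note: 0% = DMSO neutral control and 100% = excess unlabeled competitor peptide PRC23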
dFosB act-2 – activators of mouse delta FosB homodimer DNA binding; shares compounds with dFosB act-1; purified delta FosB, TAMRA-CDK5 oligo fluorescence polarization; normalised: neutral wells 0, positive control 100; activation, % at 24.9 µM; 2,400 tested, under 10 active;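 active = highest replicate activation at or above 34% and every replicate reaching that threshold; inconclusive = meets only one of the two criteria; inactive = meets neither criterion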;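 note: higher polarization means more probe DNA bound by delta FosB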
* hit, by the source's call; u = inconclusive; x = no result given. Only some compounds are listed: those with a hit (about 1.7% of all), similar ones and a draw of the others.

SMILES	UUG fidelity	CDK5 inh	CAL PDZ FP-1	Dyrk1A ADPGlo	dFosB act-1	CAL PDZ FP-2	dFosB act-2
Cc1nn(Cc2ccc(F)cc2)c2sc(C(=O)Nc3nccs3)cc12	x	-2.2	-0.9	-8.3	49.0*	0.1	7.0
CC(=O)c1cc2c(=O)c3ccccc3oc2nc1C	-13.1	1.1	-1.0	12.6	-5.0	-2.0	x
Cc1cccc(C)c1NC(=O)c1cc2c(=O)c3ccccc3oc2nc1C(F)(F)F	6.2	0.6	-2.2	-7.3	49.8*	-1.8	-10.0
C=CCN(c1ccccc1OC)S(=O)(=O)c1cccc(C(=O)NCC(c2ccc(OC)cc2)N2CCCC2)c1 (configuration not stated)	-4.3	0.1	-1.0	-2.1	27.3*	18.1	-1.5
C=CCN(c1ccccc1)S(=O)(=O)c1cccc(C(=O)NCC(c2ccc(OC)cc2)N2CCCCC2)c1 (configuration not stated)	6.4	1.2	-2.9	-1.2	u	-0.2	x
COc1ccccc1NC(=O)N(C)C[C@H]1Oc2ncc(C#CCC(C)C)cc2C(=O)N([C@@H](C)CO)C[C@H]1C	26.3	x	x	x	x	x	x
COc1ccc(NC(=O)Nc2cccc3c2O[C@@H](CN(C)Cc2ccccc2)[C@H](C)CN([C@H](C)CO)C3=O)cc1	14.1	x	x	x	x	x	x
COc1ccc(CCNC(=O)C(=O)NCc2ccc(Cl)cc2)cc1OC	x	-0.1	x	-3.3	42.5*	-6.6	-5.1
O=C(N/N=C/c1ccncc1)c1cccc(NC(=O)c2ccc(Cl)cc2)c1	x	0.9	-2.8	-0.8	41.1*	0.1	5.0
CC(=O)Nc1ccc(C(=O)N/N=C/c2cccnc2)cc1	x	2.8	-1.2	8.7	-2.7	-2.6	x
O=C(N/N=C\c1cccnc1)c1cc(-c2ccc(Cl)s2)[nH]n1	x	-1.4	-5.1	0.3	32.9*	-3.3	3.2
O=C(N/N=C/c1cccnc1)c1ccc(NC(=O)c2ccc(Cl)cc2)cc1	-20.4	0.5	-4.7	-8.5	42.5*	-1.5	-10.2
CC(C)NC(=O)N1[C@H](CO)[C@@H]2c3ccccc3N(C(=O)c3ccc(F)cc3)C[C@@H]21	8.3	x	x	x	x	x	x
CCCOc1ccc(-c2c(C(=O)N/N=C/c3ccccc3)nnn2-c2nonc2N)cc1	x	1.0	-1.7	-2.8	29.6*	-0.2	-1.1
Nc1nonc1-n1nnc(C(=O)N/N=C/C=C/c2ccccc2)c1CSC1=NCCS1	-8.2	x	x	x	x	x	x
Nc1nonc1-n1nnc(C(=O)N/N=C/c2cccc(F)c2)c1-c1ccc2c(c1)OCO2	-5.2	0.3	0.1	5.8	37.3*	4.0	2.7
Nc1nonc1-n1nnc(C(=O)N/N=C/c2ccc3c(c2)OCO3)c1CSc1ccccc1	-22.3	-0.1	0.8	-1.1	36.1*	-6.4	0.2
Nc1nonc1-n1nnc(C(=O)N/N=C/c2c(Cl)cccc2Cl)c1CSC1=NCCS1	-8.0	-0.8	-0.3	-3.0	26.6*	0.7	1.9
CN1CCN(S(=O)(=O)c2cccc(C(=O)Oc3ccc(C(C)(C)C)cc3)c2)CC1	6.9	-0.6	-2.3	15.2	23.1*	-3.8	0.2
Cc1ccc(NC(=O)/C(C#N)=C/c2ccc(C)s2)c(C)c1	-13.5	-1.8	-1.2	-0.9	16.7*	-3.5	3.8
Cc1cc2nc(-c3ccccc3O)[nH]c2cc1C	-11.5	1.4	-0.4	-5.4	11.2	x	x
Clc1cc2nc(-c3cccnc3Cl)[nH]c2cc1Cl	-12.5	-0.9	-0.9	-3.6	35.5*	12.5	6.3
Cc1cccc(NC(=O)COC(=O)c2n[nH]c3ccccc23)c1C	-4.7	1.0	-1.3	-0.2	25.4*	-5.6	6.5
CN(C)CCN(C(=O)c1ccco1)c1nc2cc3c(cc2s1)OCCO3	-2.1	1.3	-2.2	0.2	30.2*	0.8	-4.3
CN(C)CCCN(C(=O)c1ccco1)c1nc2ccc(Br)cc2s1	x	-0.6	-10.9	-7.4	-31.2	-4.5	x

(continued)
SMILES	UUG fidelity	CDK5 inh	CAL PDZ FP-1	Dyrk1A ADPGlo	dFosB act-1	CAL PDZ FP-2	dFosB act-2
CN(C)CCCN(C(=O)c1ccc2c(c1)CCCC2)c1nc2ccc(F)cc2s1	16.9	-2.5	-3.5	-5.9	6.7	0.8	x
COc1ccc2sc(N(CCCN(C)C)C(=O)c3ccc(S(=O)(=O)N4CCc5ccccc5C4)cc3)nc2c1	-3.6	1.1	-3.4	-0.4	32.6*	-1.5	0.7
CCN(CC)CCN(C(=O)c1ccc(S(=O)(=O)N2CCCCC2)cc1)c1nc2cc3c(cc2s1)OCO3	x	0.0	-2.1	-5.7	31.5*	-3.2	-1.1
CN(C)CCCN(C(=O)c1ccc2c(c1)CCCC2)c1nc2cc3c(cc2s1)OCO3	8.0	0.7	-0.7	1.1	25.5*	-2.8	1.7
COc1ccc2sc(N(CCCN(C)C)C(=O)c3ccc(S(=O)(=O)N4CCCC4)cc3)nc2c1	0.0	0.1	-1.3	6.3	-7.9	x	x
C[C@@H]1CCCCO[C@@H](CN(C)C)[C@@H](C)CN([C@H](C)CO)C(=O)c2cc(NC(=O)C3CCCCC3)ccc2O1	1.2	x	x	x	x	x	x
CCCNC(=O)C[C@@H]1CC[C@@H]2[C@@H](COc3ccc(NC(=O)c4ccc(Cl)cc4)cc3C(=O)N2C)O1	-9.4	x	x	x	x	x	x
Cc1cc(C)c2nc(N(CCN(C)C)C(=O)c3ccc4ccccc4c3)sc2c1	-9.8	-0.3	-0.2	7.1	21.0*	x	5.7
CN(C)CCN(C(=O)c1ccc(C(=O)c2ccccc2)cc1)c1nc2cc3c(cc2s1)OCCO3	9.0	-2.3	-0.8	x	24.1*	x	-8.1
CN(C)CCN(C(=O)c1ccc(S(=O)(=O)N(C)c2ccccc2)cc1)c1nc2cc3c(cc2s1)OCO3	-2.8	0.5	-1.1	-8.3	13.2	4.6	x
CN(C)CCN(C(=O)c1ccc(S(=O)(=O)N(C)c2ccccc2)cc1)c1nc2ccc(Cl)cc2s1	-1.6	0.6	0.8	0.4	28.1*	3.4	0.9
CN(C)CCN(C(=O)c1ccc2ccccc2c1)c1nc2c(F)cccc2s1	-16.5	0.5	-4.4	-9.5	-8.3	-0.5	x
CN(C)C(=O)C[C@@H]1C=C[C@@H](NC(=O)C2CC2)[C@H](CO)O1	-1.9	x	x	x	x	x	x
COCCOC(=O)N1C(=O)[C@@]2(c3cc(C#Cc4ccc(OC)cc4)ccc31)[C@H](c1ccc(OCCO)cc1)N1[C@H](c3ccccc3)[C@H](c3ccccc3)OC(=O)[C@H]1[C@@H]2C(=O)N1CCN(c2ncccn2)CC1	-12.1	x	x	x	x	x	x
C[C@H](CO)N1C[C@H](C)[C@H](CN(C)S(=O)(=O)c2ccc(Cl)cc2)OCCCC[C@H](C)Oc2ccc(NC(=O)c3ccccc3)cc2C1=O	-11.3	x	x	x	x	x	x
COc1cccc(NC(=O)N(C)C[C@@H]2Oc3cc(C#Cc4ccc(F)cc4)ccc3S(=O)(=O)N([C@H](C)CO)C[C@@H]2C)c1	-4.6	x	x	x	x	x	x
COc1cccc(OCC(O)CN2CCC(CN3C(=O)c4cccc5cccc(c45)C3=O)CC2)c1 (configuration not stated)	x	1.5	-1.9	-0.7	45.5*	0.0	3.5

Assay outcomes: PubChem BioAssay, Broad Institute
